Data: US11292791B2 (priority 2017, dated 2022)

Biological target: BRD4 (Homo sapiens (Human), UniProt O60885)
Experiment: biochemical
Conditions: BRD4 IC50 (μM gmean)

| Compound | IC50 [µM] |
| --- | --- |
| COC(=O)N1c2ccc3c(nc(Cc4ccccc4)n3[C@H]3CC[C@H](C(=O)O)C(C)(C)C3)c2CC[C@@H]1C (single isomer, unassigned) [Example 51] | 1 to 1000 |
| COC(=O)N1c2ccc3c(nc(C(C)Cc4cnccn4)n3C3CCCC(C(=O)O)C3)c2CC[C@@H]1C (stereo partly shown) [Example 585] | 0.1 to 1 |
| COC(=O)N1c2ccc3c(nc(C(F)(F)F)n3Cc3ccccc3)c2CC[C@@H]1C [Example 252] | 0.1 to 1 |
| COC(=O)N1c2ccc3c(nc(C(C)(O)Cc4ccccc4)n3C3CCCC(C(=O)O)C3)c2CC[C@@H]1C (stereo partly shown) [Example 618] | 0.1 to 1 |
| COC(=O)N1c2ccc3c(nc(C(C)c4ccc(OC)c(F)c4)n3C3CCC(C(=O)O)CC3)c2CC[C@@H]1C (stereo partly shown) [Example 653] | 0.1 to 1 |
| COC(=O)N1c2ccc3c(nc(Nc4ccccc4Cl)n3[C@H]3CC[C@H](C(=O)O)CC3)c2CC[C@@H]1C [Example 839] | 0.1 to 1 |
| COC(=O)N1c2ccc3c(nc(N(C)Cc4ccccc4)n3[C@@H]3CCC[C@@H](C(=O)O)C3)c2CC[C@@H]1C [Example 571] | 0.1 to 1 |
| COC(=O)N1c2ccc3c(nc(C(O)c4cc(F)ccc4C(F)F)n3C3CCCC(C(=O)O)C3)c2CC[C@@H]1C (stereo partly shown) [Example 444] | 0.1 to 1 |
| COC(=O)N1c2ccc3c(nc(N(C)c4ccccc4OC)n3[C@H]3CC[C@H](C(=O)O)CC3)c2CC[C@@H]1C [Example 761] | 0.1 to 1 |
| COC(=O)N1c2ccc3c(nc(C(C)Cc4ccc(F)c(F)c4)n3C3CCNCC3)c2CC[C@@H]1C (stereo partly shown) [Example 626] | 0.1 to 1 |
| COC(=O)N1c2ccc3c(nc(C(C)Cc4ccc(F)c(F)c4)n3C3CCC4(CC3)CNC4)c2CC[C@@H]1C (stereo partly shown) [Example 441] | 0.1 to 1 |
| COC(=O)N1c2ccc3c(nc(C(C)Oc4cccnc4)n3C3CCC(C(=O)O)CC3)c2CC[C@@H]1C (stereo partly shown) [Example 483] | 0.1 to 1 |
| COC(=O)N1c2ccc3c(nc(Nc4ccc(C#N)cc4)n3[C@H]3CC[C@H](C(=O)O)CC3)c2CC[C@@H]1C [Example 857] | 0.1 to 1 |
| COC(=O)N1c2ccc3c(nc(Cc4ccccc4)n3[C@@H]3CC[C@@H](C(=O)O)C(C)(C)C3)c2CC[C@@H]1C (single isomer, unassigned) [Example 50] | 1 to 1000 |
| COC(=O)N1c2ccc3c(nc(Cc4ccccc4)n3[C@H]3CC[C@H](C(=O)O)C3)c2CC[C@@H]1C (single isomer, unassigned) [Example 55] | 1 to 1000 |
| COC(=O)N1c2ccc3c(nc(C(O)c4ccc(C)c(F)c4)n3C3CCCC(C(=O)O)C3)c2CC[C@@H]1C (stereo partly shown) [Example 414] | 0.1 to 1 |
| COC(=O)N1c2ccc3c(nc(C(Cc4ccccc4)NC(C)=O)n3C3CCCC(C(=O)O)C3)c2CC[C@@H]1C (stereo partly shown) [Example 554] | 0.1 to 1 |
| COC(=O)N1c2ccc3c(nc(C(O)Cc4ccccc4)n3C3CCCC(C(=O)O)C3)c2CC[C@@H]1C (stereo partly shown) [Example 503] | 0.1 to 1 |
| COC(=O)N1c2ccc3c(nc(C(O)c4cc(F)ccc4OC(C)C)n3C3CCCC(C(=O)O)C3)c2CC[C@@H]1C (stereo partly shown) [Example 445] | 0.1 to 1 |
| COC(=O)N1c2ccc3c(nc(C(C)Cn4cc(Cl)cn4)n3C3CC4(CCNC4)C3)c2CC[C@@H]1C (stereo partly shown) [Example 736] | 0.1 to 1 |
| COC(=O)N1c2ccc3c(nc(OCCC4CCCC4)n3[C@H]3CC[C@H](C(=O)O)CC3)c2CC[C@@H]1C [Example 766] | 0.1 to 1 |
| COC(=O)N1c2ccc3c(nc(Cc4cnc5[nH]ccc5n4)n3[C@@H]3CCC[C@@H](C(=O)O)C3)c2CC[C@@H]1C [Example 465] | 0.1 to 1 |

| Compound | IC50 [µM] |
| --- | --- |
| COC(=O)N1c2ccc3c(nc(C(O)c4cccc5c4COC5)n3C3CCCC(C(=O)O)C3)c2CC[C@@H]1C (stereo partly shown) [Example 826] | 0.1 to 1 |
| COC(=O)N1c2ccc3c(nc(C(C)Cn4cc(Cl)cn4)n3C3CCCNCC3)c2CC[C@@H]1C (stereo partly shown) [Example 686] | 0.1 to 1 |
| COC(=O)N1c2ccc3c(nc(C(O)c4cc(Cl)cc(OC)c4)n3C3CCCC(C(=O)O)C3)c2CC[C@@H]1C (stereo partly shown) [Example 421] | 0.1 to 1 |
| COC(=O)N1c2ccc3c(nc(C(C)OC4CCCCC4)n3C3CCC(C(=O)O)CC3)c2CC[C@@H]1C (stereo partly shown) [Example 685] | 0.1 to 1 |
| COC(=O)N1c2ccc3c(nc(C(O)c4ccc(OC)cc4)n3C3CCCC(C(=O)O)C3)c2CC[C@@H]1C (stereo partly shown) [Example 470] | 0.1 to 1 |
| COC(=O)N1c2ccc3c(nc(C(O)c4ccc(OC)c(F)c4)n3C3CCCC(C(=O)O)C3)c2CC[C@@H]1C (stereo partly shown) [Example 420] | 0.1 to 1 |
| COC(=O)N1c2ccc3c(nc(NS(=O)(=O)c4ccccc4)n3[C@@H]3CCC[C@@H](C(=O)O)C3)c2CC[C@@H]1C [Example 715] | 0.1 to 1 |
| COC(=O)N1c2ccc3c(nc(OCCn4cc(Cl)cn4)n3[C@H]3CC[C@H](C(=O)O)CC3)c2CC[C@@H]1C [Example 703] | 0.1 to 1 |
| COC(=O)N1c2ccc3c(nc(C(O)c4cc5ccccc5cn4)n3C3CCCC(C(=O)O)C3)c2CC[C@@H]1C (stereo partly shown) [Example 587] | 0.1 to 1 |
| COC(=O)N1c2ccc3c(nc(C(C)Oc4ccccn4)n3C3CCC(C(=O)O)CC3)c2CC[C@@H]1C (stereo partly shown) [Example 765] | 0.1 to 1 |
| COC(=O)N1c2ccc3c(nc(NCc4ccccc4)n3[C@@H]3CCC[C@@H](C(=O)O)C3)c2CC[C@@H]1C [Example 690] | 0.1 to 1 |
| COC(=O)N1c2ccc3c(nc(Cc4cnc5c(n4)CCCC5)n3[C@@H]3CCC[C@@H](C(=O)O)C3)c2CC[C@@H]1C [Example 556] | 0.1 to 1 |
| COC(=O)N1c2ccc3c(nc(C(C)Cn4cc(Cl)cn4)n3C3CCC4(CC3)CNC4)c2CC[C@@H]1C (stereo partly shown) [Example 609] | 0.1 to 1 |
| COC(=O)N1c2ccc3c(nc(Nc4cccc(OC)c4)n3[C@H]3CC[C@H](C(=O)O)CC3)c2CC[C@@H]1C [Example 776] | 0.1 to 1 |
| COC(=O)N1c2ccc3c(nc(Nc4cc(C5CC5)nn4C)n3[C@H]3CC[C@H](C(=O)O)CC3)c2CC[C@@H]1C [Example 727] | 0.1 to 1 |
| COC(=O)N1c2ccc3c(nc(Cc4cc5ccccc5[nH]4)n3[C@@H]3CCC[C@@H](C(=O)O)C3)c2CC[C@@H]1C [Example 500] | 0.1 to 1 |
| COC(=O)N1c2ccc3c(nc(C(C)Cc4ccccc4)n3C3CCCNCC3)c2CC[C@@H]1C (stereo partly shown) [Example 567] | 0.1 to 1 |
| COC(=O)N1c2ccc3c(nc(CCc4ccccc4)n3[C@H]3CC[C@H](C(N)=O)CC3)c2CC[C@@H]1C [Example 76] | 0.1 to 1 |
| COC(=O)N1c2ccc3c(nc(C(Cc4ccccc4)NC(C)=O)n3C3CCCC(C(=O)O)C3)c2CC[C@@H]1C (stereo partly shown) [Example 469] | 0.01 to 0.1 |
| COC(=O)N1c2ccc3c(nc(C4(Oc5cnccn5)CC4)n3[C@@H]3CCC[C@@H](C(=O)O)C3)c2CC[C@@H]1C [Example 604] | 0.1 to 1 |
| COC(=O)N1c2ccc3c(nc(N(C)c4ccccc4C)n3[C@H]3CC[C@H](C(=O)O)CC3)c2CC[C@@H]1C [Example 598] | 0.1 to 1 |
| COC(=O)N1c2ccc3c(nc(Nc4ccc(F)c(OC)c4)n3[C@H]3CC[C@H](C(=O)O)CC3)c2CC[C@@H]1C [Example 899] | 0.1 to 1 |

| Compound | IC50 [µM] |
| --- | --- |
| COC(=O)N1c2ccc3c(nc(Cc4ccccc4)n3[C@H]3CC[C@H](C(N)=O)CC3)c2CC[C@@H]1C [Example 74, methyl (7S)-2-benzyl-7-methyl-3-[trans-4-carbamoylcyclohexyl]-3H,6H,7H,8H,9H-imidazo[4,5-f]quinoline-6-carboxylate] | 1 to 1000 |
| COC(=O)N1c2ccc3c(nc(C(O)Cc4ccccc4)n3C3CCC(C(=O)O)CC3)c2CC[C@@H]1C (stereo partly shown) [Example 569] | 0.1 to 1 |
| COC(=O)N1c2ccc3c(nc(C(C)CN4CCCCC4=O)n3C3CCCC(C(=O)O)C3)c2CC[C@@H]1C (stereo partly shown) [Example 683] | 0.1 to 1 |
| COC(=O)N1c2ccc3c(nc(C(O)c4ccc(OC)cc4Cl)n3C3CCCC(C(=O)O)C3)c2CC[C@@H]1C (stereo partly shown) [Example 430] | 0.1 to 1 |
| COC(=O)N1c2ccc3c(nc(C(O)c4cc(Cl)c5c(c4)CCO5)n3C3CCCC(C(=O)O)C3)c2CC[C@@H]1C (stereo partly shown) [Example 426] | 0.1 to 1 |
| COC(=O)N1c2ccc3c(nc(C(C)Cc4cnccn4)n3C3CCC(C(=O)O)CC3)c2CC[C@@H]1C (stereo partly shown) [Example 552] | 0.1 to 1 |
| COC(=O)N1c2ccc3c(nc(CCC4CCC4)n3[C@@H]3CCC[C@H](C(=O)O)C3)c2CC[C@@H]1C [Example 818] | 0.1 to 1 |
| COC(=O)N1c2ccc3c(nc(C(O)c4cc(F)cc5cn[nH]c45)n3C3CCCC(C(=O)O)C3)c2CC[C@@H]1C (stereo partly shown) [Example 478] | 0.1 to 1 |
| COC(=O)N1c2ccc3c(nc(CC(O)c4ccccc4)n3C3CCC(C(=O)O)CC3)c2CC[C@@H]1C (stereo partly shown) [Example 658] | 0.1 to 1 |
| COC(=O)N1c2ccc3c(nc(Nc4cccc(C)c4)n3[C@H]3CC[C@H](C(=O)O)CC3)c2CC[C@@H]1C [Example 866] | 0.1 to 1 |
| COC(=O)N1c2ccc3c(nc(C(C)C(=O)N4CCCCC4)n3C3CCCC(C(=O)O)C3)c2CC[C@@H]1C (stereo partly shown) [Example 623] | 0.1 to 1 |
| COC(=O)N1c2ccc3c(nc(C(O)c4cccc5c4OCC5)n3C3CCCC(C(=O)O)C3)c2CC[C@@H]1C (stereo partly shown) [Example 440] | 0.1 to 1 |
| COC(=O)N1c2ccc3c(nc(Nc4cccc(C#N)c4)n3[C@@H]3CCC[C@@H](C(=O)O)C3)c2CC[C@@H]1C [Example 819] | 0.1 to 1 |
| COC(=O)N1c2ccc3c(nc(C(c4ccccc4)C(C)C)n3C3CCC(C(=O)O)CC3)c2CC[C@@H]1C (stereo partly shown) [Example 640] | 0.1 to 1 |
| COC(=O)N1c2ccc3c(nc(CCC4CCCO4)n3C3CCCC(C(=O)O)C3)c2CC[C@@H]1C (stereo partly shown) [Example 705] | 0.1 to 1 |
| COC(=O)N1c2ccc3c(nc(N(C)c4ccccc4OC)n3[C@@H]3CCC[C@@H](C(=O)O)C3)c2CC[C@@H]1C [Example 689] | 0.1 to 1 |
| COC(=O)N1c2ccc3c(nc(C(O)c4ccc(Cl)cc4)n3C3CCCC(C(=O)O)C3)c2CC[C@@H]1C (stereo partly drawn) [Example 501, (1R,3R)-3-[(7S)-2-[(S)-(4-chlorophenyl)(hydroxy)methyl]-6-(methoxycarbonyl)-7-methyl-3H,6H,7H,8H,9H-imidazo[4,5-f]quinolin-3-yl]cyclohexane-1-carboxylic Acid] | 0.1 to 1 |
| COC(=O)N1c2ccc3c(nc(C(O)c4ccc5c(ccn5C)c4)n3C3CCCC(C(=O)O)C3)c2CC[C@@H]1C (stereo partly shown) [Example 962] | 0.01 to 0.1 |
| COC(=O)N1c2ccc3c(nc(C(C)Cn4ccc(Cl)n4)n3C3CCC(C(=O)O)CC3)c2CC[C@@H]1C (stereo partly shown) [Example 457] | 0.1 to 1 |
| COC(=O)N1c2ccc3c(nc(Nc4ccc5cn[nH]c5c4)n3[C@@H]3CCC[C@@H](C(=O)O)C3)c2CC[C@@H]1C [Example 830] | 0.1 to 1 |
